Source: US5629347A, “Aromatic compounds, pharmaceutical compositions containing them and their use in therapy” (Merck Sharp & Dohme Ltd., priority 1991, dated 1997)
Counter-ions that a name gives are not always drawn.

The chains behind the UniProt entries cited, without tags or fusion partners.
UniProt P25103, whole entry: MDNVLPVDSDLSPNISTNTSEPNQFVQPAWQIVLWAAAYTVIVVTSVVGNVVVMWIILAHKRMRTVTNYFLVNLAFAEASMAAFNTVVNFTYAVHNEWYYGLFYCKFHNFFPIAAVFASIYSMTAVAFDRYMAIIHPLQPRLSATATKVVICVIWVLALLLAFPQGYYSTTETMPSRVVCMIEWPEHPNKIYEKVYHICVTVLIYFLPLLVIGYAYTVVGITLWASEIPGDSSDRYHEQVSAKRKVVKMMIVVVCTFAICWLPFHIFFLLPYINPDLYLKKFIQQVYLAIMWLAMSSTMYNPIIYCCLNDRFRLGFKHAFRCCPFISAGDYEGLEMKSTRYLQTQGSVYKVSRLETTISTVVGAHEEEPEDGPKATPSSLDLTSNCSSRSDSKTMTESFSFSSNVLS

Biological target: human NK1R (Homo sapiens, UniProt P25103)
Assay: biochemical
Type: binding
Details: displacement of 125I-substance P; human NK1R in COS or CHO cells
Procedure: To express the cloned human neurokinin-1-receotor (NK1R) transiently in COS, the cDNA for the human NK1R was cloned into the expression vector pCDM9 which was derived from pCDM8 (INVITROGEN) by inserting the ampicillin resistance gene (nucleotide 1973 to 2964 from BLUESCRIPT SK+ (trademark, […], La Jolla, Calif., U.S.A.)) into the Sac II site. Transfection of 20 ug of the plasmid DNA into 10 million COS cells was achieved by electroporation in 800 μl of transfection buffer (135 mM NaCl, 1.2 mM CaCl2, 1.2 mM MgCl2, 2.4 mM K2 HPO4, 0.6 mM KH2 PO4, 10 mM glucose, 10 mM N-2-hydroxyethyl-piperazine-N'-2-ethane sulphonic acid (HEPES) pH 7.4) at 260 V and 950 μF using the IBI GENEZAPPER (trademark IBI, New Haven, Conn., U.S.A.). The cells were incubated in 10% fetal calf serum, 2 mM glutamine, 100 U/ml penicillin-streptomycin, and 90% DMEM media (GIBCO, Grand Island, N.Y., U.S.A.) in 5% CO2 at 37° C. for three days before the binding assay.
To establish a stable cell line expressing cloned human NK1R, the cDNA was subcloned into the vector pRcCMV (INVITROGEN). Transfection of 20 ug of the plasmid DNA into CHO cells was achieved by electroporation in 800 μl of transfection buffer supplemented with 0.625 mg/ml Herring sperm DNA at 300 V and 950 μF using the IBI GENEZAPPER (IBI). The transfected cells were incubated. in CHO media [10% fetal calf serum, 100 U/ml penicillin-streptomycin, 2 mM glutamine, 1/500 hypoxanthinethymidine (ATCC), 90% IMDM media (JRH BIOSCIENCES, Lenexa, Kans., U.S.A.), 0.7 mg/ml G418 (GIBCO)] in 5% CO2 at 37° C. until colonies were visible. Each colony was separated and propagated. The cell clone with the highest number of human NK1R was selected for subsequent applications such as drug screening.
The binding assay of human NK1R expressed in either COS or CHO cells is based on the use of ^125 I-substance P (^125 I-SP, from DU PONT, Boston, Mass.) as a radioactively labeled ligand which competes with unlabeled substance P or any other ligand for binding to the human NK1R. […] The tubes were incubated at 4° C. or at room temperature for 1 hour with gentle shaking. The bound radioactivity was separated from unbound radioactivity by GF/C filter (BRANDEL, Gaithersburg, Md.) which was prewetted with 0.1% polyethylenimine. The filter was washed with 3 ml of wash buffer (50 mM Tris pH 7.5, 5 mM MnCl2, 150 mM NaCl) three times and its radioactivity was determined by gamma counter.

IC50 [nM] | Compound
5 | NC(=O)CN(CC(N)=O)C(COCc1cc(C(F)(F)F)cc(C(F)(F)F)c1)C(c1ccccc1)c1ccccc1 (stereo not drawn) [Example 64, 2-(Bis((carboxamido)methyl)ammonium)-1-((3,5-bis(trifluoromethyl)phenyl)methyloxy)-3,3-diphenylpropane oxalate salt]
1.5 | CNC(=O)CNC(COCc1cc(C(F)(F)F)cc(C(F)(F)F)c1)C(c1ccccc1)c1ccccc1 (stereo not drawn) [Example 59, 1-((3,5-Bis(trifluoromethyl)phenyl)methyloxy)-2-(((N-methylcarboxamido)methyl)amino)-3,3-diphenylpropane]
5 | CN1CCN(C(=O)CNC(COCc2cc(C(F)(F)F)cc(C(F)(F)F)c2)C(c2ccccc2)c2ccccc2)CC1 (stereo not drawn) [Example 53, N-(1-((3',5'-Bis(trifluoromethyl)phenyl)methyloxy)-3,3-diphenylprop-2-yl)glycine N'-methylpiperazinide oxalate salt]
5 | CN(C)C(COCc1cc(C(F)(F)F)cc(C(F)(F)F)c1)C(c1ccccc1)c1ccccc1 (stereo not drawn) [Example 17, 2-Dimethylammonium-1-((3,5-bis-trifluoromethylphenyl)methyloxy)-3,3-diphenylpropane]
9 | NC(COCc1cc(C(F)(F)F)cc(C(F)(F)F)c1)C(c1ccccc1)c1ccccc1 (stereo not drawn) [Example 16, 2-Ammonium-1-((3,5-bis(trifluoromethyl)phenyl)methyloxy)-3,3-diphenylpropane oxalate salt]
5 | NCCNC(COCc1cc(C(F)(F)F)cc(C(F)(F)F)c1)C(c1ccccc1)c1ccccc1 (stereo not drawn) [Example 35, 2-((2-Ammonium)ethylammonium)-1-((3,5-bis(trifluoromethyl)phenyl)methyloxy)-3,3-diphenylpropane bis oxalate salt]
